Measurements as given in patent publication US20030092902A1.

Chains of the proteins cited; added tags and fusions are not shown. Where a name states a change or a piece, a line headed by the entry shows the natural chain unless it says otherwise. Chains listed by the source or under a name are the forms on record and can include a tag or linker.
UniProt P20382: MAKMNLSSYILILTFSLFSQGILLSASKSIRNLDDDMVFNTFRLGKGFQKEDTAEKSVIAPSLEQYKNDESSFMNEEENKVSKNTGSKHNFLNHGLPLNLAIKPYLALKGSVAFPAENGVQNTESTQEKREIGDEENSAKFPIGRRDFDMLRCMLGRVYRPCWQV
Wild-type Human MCH1R Long Form (human), one chain, as listed by the source limits assumed: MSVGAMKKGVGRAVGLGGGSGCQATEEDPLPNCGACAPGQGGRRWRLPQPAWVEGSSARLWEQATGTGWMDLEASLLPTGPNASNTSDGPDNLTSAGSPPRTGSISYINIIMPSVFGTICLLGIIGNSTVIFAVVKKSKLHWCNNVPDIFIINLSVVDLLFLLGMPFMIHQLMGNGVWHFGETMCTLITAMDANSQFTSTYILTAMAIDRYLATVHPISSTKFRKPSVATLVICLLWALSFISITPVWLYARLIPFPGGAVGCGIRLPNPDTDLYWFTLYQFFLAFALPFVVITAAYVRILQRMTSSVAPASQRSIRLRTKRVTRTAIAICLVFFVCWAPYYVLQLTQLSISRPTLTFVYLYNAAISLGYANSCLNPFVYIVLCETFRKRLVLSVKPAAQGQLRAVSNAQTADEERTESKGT

Assays:
Assay in all cases: cell-based or functional assay
[1] = target: Wild-type Human MCH1R Short Form (human), Q99705
[2] = target: mouse MCH1R-linker-EGFP (mouse)
[3] = target: mouse MCH1R/EGFP direct fusion (mouse)
[4] = target: Wild-type Human MCH1R Short Form (human), Q99705; remark: listed apart in the source
[5] = target: Wild-type Human MCH1R Long Form (human)
[6] = target: human long form/mouse species chimeric MCH1R-linker-EGFP (human/mouse chimera)
[7] = target: human short form/mouse species chimeric MCH1R-linker-EGFP (human/mouse chimera)
[8] = target: Wild-type Human MCH1R Short Form (human), Q99705; remark: listed apart in the source

DFDMLRCMLGRVYRPCWQV (peptide, UniProt P20382 147-165, looked up, modifications not checked) [human melanin-concentrating hormone (MCH), P20382 147-165]
EC50, cAMP flashplate assay, stable CHO cell clone [1]: 0.114 nM
EC50 (nM), cAMP production, transiently transfected CHO cells [2]: 3.2 nM
EC50 (nM), cAMP production, transiently transfected CHO cells [3]: 0.819 nM
EC50 (nM), cAMP production, transiently transfected CHO cells [4]: 2.17 nM
EC50 (nM), cAMP production, transiently transfected CHO cells [5]: 1.51 nM
EC50 (nM), functional activity in transiently transfected HEK293 cells (aequorin bioluminescence) [5]: 197 nM
EC50 (nM), cAMP production, transiently transfected CHO cells [6]: 11.6 nM
EC50 (nM), functional activity in transiently transfected HEK293 cells (aequorin bioluminescence) [6]: 218 nM
EC50 (nM), cAMP production, transiently transfected CHO cells [7]: 1.56 nM
EC50 (nM), functional activity in transiently transfected HEK293 cells (aequorin bioluminescence) [7]: 19.5 nM
EC50 (nM), cAMP production, transiently transfected CHO cells [8]: 1.03 nM
EC50 (nM), functional activity in transiently transfected HEK293 cells (aequorin bioluminescence) [8]: 22.3 nM
EC50, cAMP flashplate assay, stable CHO cell clone [8]: 0.128 nM

Like-named read-outs stand apart in the source and are kept apart here.
